Legend:
SB2b cell line = assay: cAMP accumulation, αCGRP and AM, SB2b; format: cell-based, human; conditions: 30 min, 3 to 4 independent experiments in triplicate
Procedure: Primary patient high-grade glioma (HGG) cell lines, in vitro surrogates of glioblastoma, were developed by QIMR-Berghofer Medical Research Institute (Brisbane, Australia) and represent 3 distinct GBM subtypes: SB2b and PB1 (classical), JK2 (proneural) and WK1(mesenchymal), who supplied these directly for this study. GBM cell lines were cultured as adherent monolayers on matrigel (BD Biosciences)-coated flasks using StemPro NSC SFM serum free cell culture medium (Thermo Fisher Scientific) supplemented with 20 ng/ml EGF and 20 ng/ml FGFb, 1% D-glutamine and 1% of penicillin/ streptomycin (further referred as StemPro complete medium). Cells were cultured in 5% CO2 / 95% humidified air at 37 °C.
GBM cell lines were seeded at 38000 cells/well (SB2b) or 35,000 cells/well (PB1, JK2 and WK1) in 96-well matrigel-coated plates and incubated for 24 h at 37°C, 5% CO2 in humidified incubator in StemPro complete medium. Media was replaced with stimulation buffer (phenol red free F12 media, 0.1% BSA, 0.5 mM IBMX, pH 7.4). […] Intracellular cAMP levels in the wells were determined using Lance Ultra cAMP assay kit (Perkin Elmer) according to the manufacturer’s instructions and detected using an Envision multilabel 2103 reader. […] Data were analysed by three-parameter logistic curve and are presented as percentage of 10^− 5 M forskolin response.

CTR = system: CTR; design: method as in PMID 9620797, PMID 19497285; conditions: receptor CTR; ref [10], [11], [38]; cited from earlier work
AMY1 (CTR + RAMP1) = system: AMY1 (CTR + RAMP1); design: method as in PMID 9620797, PMID 19497285; conditions: receptor AMY1, CTR + RAMP1; ref [10], [11], [38]; cited from earlier work
AMY3 (CTR + RAMP3) = system: AMY3 (CTR + RAMP3); design: method as in PMID 9620797, PMID 19497285; conditions: receptor AMY3, CTR + RAMP3; ref [10], [11], [38]; cited from earlier work
CGRP (CLR + RAMP1) = system: CGRP (CLR + RAMP1); design: method as in PMID 9620797, PMID 19497285; conditions: receptor CGRP, ref [10], [11], [38]; cited from earlier work
AM1 (CLR + RAMP2) = system: AM1 (CLR + RAMP2); design: method as in PMID 9620797, PMID 19497285; conditions: receptor AM1, CLR + RAMP2; ref [10], [11], [38]; cited from earlier work
AM2 (CLR + RAMP3) = system: AM2 (CLR + RAMP3); design: method as in PMID 9620797, PMID 19497285; conditions: receptor AM2, CLR + RAMP3; ref [10], [11], [38]; cited from earlier work

## CC(C)C[C@H](NC(=O)CNC(=O)[C@H](C)NC(=O)[C@H](CC(C)C)NC(=O)[C@H](CCCNC(=N)N)NC(=O)[C@H](Cc1c[nH]cn1)NC(=O)[C@@H](NC(=O)[C@@H](NC(=O)[C@@H]1CSSC[C@H](NC(=O)[C@H](C)N)C(=O)N[C@@H](CC(=O)O)C(=O)N[C@@H]([C@@H](C)O)C(=O)N[C@@H](C)C(=O)N[C@@H]([C@@H](C)O)C(=O)N1)C(C)C)[C@@H](C)O)C(=O)N[C@@H](CC(C)C)C(=O)N[C@@H](CO)C(=O)N[C@@H](CCCNC(=N)N)C(=O)N[C@@H](CO)C(=O)NCC(=O)NCC(=O)N[C@H](C(=O)N[C@H](C(=O)N[C@@H](CCCCN)C(=O)N[C@@H](CC(N)=O)C(=O)N[C@@H](CC(N)=O)C(=O)N[C@@H](Cc1ccccc1)C(=O)N[C@H](C(=O)N1CCC[C@H]1C(=O)N[C@H](C(=O)N[C@@H](CC(N)=O)C(=O)N[C@H](C(=O)NCC(=O)N[C@@H](CO)C(=O)N[C@@H](CCCCN)C(=O)N[C@@H](C)C(=O)N[C@@H](Cc1ccccc1)C(N)=O)C(C)C)[C@@H](C)O)C(C)C)C(C)C)C(C)C [αCGRP, Calcitonin gene related peptide]
SB2b cell line
  cAMP response to αCGRP, adrenomedullin (and weak amylin response): Weak responses
CTR
  Peptides rank order of potency (human): sCT ≥ hCT > AMY, αCGRP > AM, intermedin
AMY1 (CTR + RAMP1)
  Peptides rank order of potency (human): sCT ≥ AMY ≥ αCGRP > intermedin ≥ hCT > AM
AMY3 (CTR + RAMP3)
  Peptides rank order of potency (human): sCT ≥ AMY > αCGRP > intermedin ≥ hCT > AM
CGRP (CLR + RAMP1)
  Peptides rank order of potency (human): αCGRP > AM ≥ intermedin > AMY ≥ sCT
AM1 (CLR + RAMP2)
  Peptides rank order of potency (human): AM > intermedin > α-CGRP, AMY > sCT
AM2 (CLR + RAMP3)
  Peptides rank order of potency (human): AM ≥ intermedin ≥ α-CGRP > AMY > SCT

— PMC6379965, “Expression and activity of the calcitonin receptor family in a sample of primary human high-grade gliomas” (BMC Cancer, 2019)
